Measurements taken from patent publication US20070203060A1, “Casein Derived Peptides And Therapeutic Uses Thereof” (priority 2004, published 2007).

Test system: peripheral white blood cells of myeloablated, bone marrow transplanted mice
Test: Leukocyte reconstitution in irradiated bone marrow transplant recipient mice
Type: in vivo, mouse
Settings: F1 mice, 750 cGy, 1 mg i.v., 5 and 7 days post-transplantation

SEQ ID NO: 434: synthetic peptide derived from κ-casein as printed in b423; probably κ 106-127 (SEQ ID NO: 30) (YY)
early leukocyte reconstitution (in words): strong stimulation
